The conditions of this data set: oral 3H-paclitaxel 9 mg/kg; cyclosporin dose 2 × 5 mg/kg oral.

Each structure is given as a SMILES string.

Regarding `C/C=C/C[C@@H](C)C[C@H]1C(=O)N[C@@H](CC)C(=O)N(C)CC(=O)N(C)[C@@H](CC(C)C)C(=O)N[C@@H](C(C)C)C(=O)N(C)[C@@H](CC(C)C)C(=O)N[C@@H](C)C(=O)N[C@H](C)C(=O)N(C)[C@@H](CC(C)C)C(=O)N(C)[C@@H](CC(C)C)C(=O)N(C)[C@@H](C(C)C)C(=O)N1C` [Cyclosporin F, cyclosporin F], the “% Absorption” value was found to be 27.2%.

The values above are taken from US20050238634A1.
